Reference: ChEMBL document CHEMBL4390654, “Microwave-assisted solid-phase synthesis of antisense acpP peptide nucleic acid-peptide conjugates active against colistin- and tigecycline-resistant E. coli and K. pneumoniae” (Eur J Med Chem, 2019)

System: Escherichia coli
Experiment: Antibacterial activity against multi-drug resistant Escherichia coli NMI 3898/15 assessed as reduction in microbial growth incubated for 20 hrs
Assay type: functional
Procedure, shortened: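 Broth microdilution MIC (modified Hancock protocol) in non-binding polystyrene plates. Inoculum ~2 × 10^5 CFU/mL in Mueller-Hinton broth with Mg²⁺ and Ca²⁺ at 4 mg/L each. Compounds dissolved in water, diluted in 0.01% acetic acid/0.2% BSA (final), added as 10× stocks. Covered plates incubated 20 h at 35 °C (± 2 °C) with 220 rpm circular shaking before MIC read.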

## GENTAMICIN
  MIC: 0.5 µg/mL
